Results as given in PubChem BioAssay AID892 (National Center for Advancing Translational Sciences (NCATS), 2007).
Only a part is listed here, and it is no random draw. Some tests of the compounds listed are not included; inactive here does not mean inactive elsewhere. The source made the active and inactive calls. The call rests on the fitted dose curve; in most records, active means well fitted inhibition curve with a large enough effect; inconclusive means small, poorly fitted or top-dose-only effect; inactive means no such curve, though single readings can be large or run the other way.

By UniProt entry, the sequences of proteins in these tests, tags left out.
UniProt P38398, whole entry: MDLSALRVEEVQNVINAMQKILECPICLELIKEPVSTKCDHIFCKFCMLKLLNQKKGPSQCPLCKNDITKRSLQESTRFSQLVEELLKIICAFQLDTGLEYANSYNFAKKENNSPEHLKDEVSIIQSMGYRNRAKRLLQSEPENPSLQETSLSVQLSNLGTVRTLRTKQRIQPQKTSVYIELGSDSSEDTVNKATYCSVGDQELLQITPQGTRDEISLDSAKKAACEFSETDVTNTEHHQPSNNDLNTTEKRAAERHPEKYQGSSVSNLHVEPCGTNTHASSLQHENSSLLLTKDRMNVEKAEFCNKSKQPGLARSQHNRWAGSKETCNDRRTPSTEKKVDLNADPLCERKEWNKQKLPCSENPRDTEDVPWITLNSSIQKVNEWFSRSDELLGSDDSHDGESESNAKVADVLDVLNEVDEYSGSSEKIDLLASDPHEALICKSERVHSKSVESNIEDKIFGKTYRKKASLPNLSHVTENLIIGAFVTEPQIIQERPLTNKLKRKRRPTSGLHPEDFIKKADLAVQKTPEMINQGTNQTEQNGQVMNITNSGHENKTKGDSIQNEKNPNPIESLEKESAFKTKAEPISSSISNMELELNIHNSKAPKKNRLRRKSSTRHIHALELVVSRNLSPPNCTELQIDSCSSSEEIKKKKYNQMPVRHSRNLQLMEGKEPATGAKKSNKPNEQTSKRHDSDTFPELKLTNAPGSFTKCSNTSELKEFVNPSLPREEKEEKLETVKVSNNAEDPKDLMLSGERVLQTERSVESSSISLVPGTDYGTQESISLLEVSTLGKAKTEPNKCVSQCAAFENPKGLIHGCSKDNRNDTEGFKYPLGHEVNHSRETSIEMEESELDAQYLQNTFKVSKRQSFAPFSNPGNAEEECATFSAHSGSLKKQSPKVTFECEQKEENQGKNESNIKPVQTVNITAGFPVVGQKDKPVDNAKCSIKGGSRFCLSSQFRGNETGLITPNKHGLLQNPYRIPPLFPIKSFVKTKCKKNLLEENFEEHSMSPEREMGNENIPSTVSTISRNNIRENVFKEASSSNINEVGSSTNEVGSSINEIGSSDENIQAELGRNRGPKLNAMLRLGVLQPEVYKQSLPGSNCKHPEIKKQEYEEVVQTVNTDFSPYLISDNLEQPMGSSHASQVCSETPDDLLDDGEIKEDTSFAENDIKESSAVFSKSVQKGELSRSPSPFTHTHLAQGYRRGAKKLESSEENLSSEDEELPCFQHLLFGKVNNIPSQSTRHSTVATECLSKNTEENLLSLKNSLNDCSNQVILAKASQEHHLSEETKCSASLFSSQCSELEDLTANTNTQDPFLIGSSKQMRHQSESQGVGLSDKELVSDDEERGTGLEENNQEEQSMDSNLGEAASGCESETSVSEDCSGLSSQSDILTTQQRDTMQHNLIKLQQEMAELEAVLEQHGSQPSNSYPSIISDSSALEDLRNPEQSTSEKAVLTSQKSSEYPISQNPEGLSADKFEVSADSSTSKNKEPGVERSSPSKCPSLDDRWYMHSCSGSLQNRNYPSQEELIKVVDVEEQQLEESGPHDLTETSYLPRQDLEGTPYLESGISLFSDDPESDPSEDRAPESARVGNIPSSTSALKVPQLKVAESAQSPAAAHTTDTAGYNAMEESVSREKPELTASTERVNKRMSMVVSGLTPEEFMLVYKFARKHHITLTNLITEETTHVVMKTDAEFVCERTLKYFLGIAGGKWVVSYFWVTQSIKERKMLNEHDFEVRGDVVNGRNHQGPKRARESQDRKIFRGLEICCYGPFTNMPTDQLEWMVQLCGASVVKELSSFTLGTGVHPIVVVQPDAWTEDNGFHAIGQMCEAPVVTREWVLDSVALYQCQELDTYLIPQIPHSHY

Target: Breast cancer type 1 susceptibility protein (Homo sapiens) (UniProt P38398)
Assay: qHTS Assay for Inhibitors of BRCT-Phosphoprotein Interaction (Red Fluorophore)
Conditions: BRCT-phosphopeptide binding, red fluorescence polarization; at 15.4 µM (top of the series) unless noted
Description: NIH Molecular Libraries Screening Centers Network [MLSCN]
NIH Chemical Genomics Center [NCGC]
PI Name: Natarajan, Amarnath; University of Texas
A complex of BRCT (C-terminal portion of BRCA1, MW ~35 kDa, His-tagged) and fluorescently labeled pBACH1 phosphorylated 10 aa peptide fragment of BACH1, a helicase implicated in DNA repair, is incubated with library members. Inhibitors of BRCT-pBACH1 binding are detected by a decrease in the fluorescence polarization (FP) of the fluorophore. In order to minimize the effect of fluorescence artifacts and to increase the overall robustness of the screen, the compound library members were incubated in separate reactions with rhodamine-labeled probe-protein complexes. Protein and labeled probes were supplied by Dr. Amarnath Natarajan, Department of Pharmacology and Toxicology, University of Texas Medical Branch Galveston, TX.
Assay Buffer: 16mM Na2HPO4, 4 mM NaH2PO4, 150 mM NaCl, 1 mM EDTA, 1 mM DTT, 0.02% NaN3, and 0.01% Tween 20 at pH 7.3.
Assay Controls: 100 nM TAMRA labeled decapeptide dispensed into columns 3 and 4 to generate negative control (full inhibition of
binding, -100 % activity). 100 nM labeled decapeptide/100 nM protein in columns 1, 2, 5 - 48. Titration of unlabeled decapeptide control (from 10 mM, then 1:2 dilution in duplicate) pin-transferred to column 2, rows 1 to 16. Column 1 is neutral.
Three uL of reagents were dispensed to 1536-well Greiner black solid-bottom plates. Compounds and controls (23 nL) were transferred via Kalypsys PinTool. The plates were incubated for 12 min at room temperature, and then read on ViewLux (Perkin-Elmer) High-throughput CCD imager using BODIPY for the rhodamine-labeled decapeptide probe polarization filter sets. During dispense, reagent bottles were kept submerged into 4 deg C water bath and all liquid lines were covered with aluminum foil to minimize probe and protein degradation. All screening operations were performed on a Kalypsys robotic system (Kalypsys, Inc., San Diego, CA) containing one RX-130 and two RX-90 anthropomorphic robotic arms. The timing and order of assay plates passing through the screening system were adjusted such that each compound library plate was assayed against the fluorescein- and rhodamine-labeled assay systems at immediately adjacent time points.
On the % scale 0 is the no-effect control and ±100 the full control effect.

Structure (SMILES) | activity change, negative = inhibition
CN(C)c1cccc(C(=O)NCC2(N(C)C)CCCCC2)c1 | inactive: 0.128% [at 76.9 µM]
C=C(C)C#C[C@@](O)(C(=O)OC1CCN(C)CC1)c1ccccc1 | inactive: -0.362%
CN1CC[C@H](OC(=O)[C@](O)(c2ccccc2)C2CCCC2)C1 | inactive: -0.224%
O=C(OC1CN2CCC1CC2)C(CO)(c1ccccc1)c1ccccc1 (stereo not given) | inactive: 0.983% [at 76.9 µM]
CN1CCC[C@H](OC(=O)[C@](O)(c2ccccc2)C2CCCC2)C1 | inactive: 1.02%
